Earlier results in patent publication US20150108064A1, “Production Of Channel Type Cyclodextrin Crystals” (Amphidex A/S, priority 2012, published 2015).

Conditions: maximum safe concentration in the air, worker exposed daily

Substance: 1-butanol
- TLV: 50 ppm
